Assay [1] deals with T1, Acetylcholinesterase (EC 3.1.1.7) (Homo sapiens, UniProt P22303).
T1 construct: purchased Sigma, Pakistan
It counts as biochemical. To be noted: pH 8; read-out: AChE ± SEM (IC50). The method, then:
(§1) All other chemicals were of analytical grade and were used as such without further purification. Acetylcholinesterase (AChE) and butyrylcholinesterase (BChE) inhibiting activities were measured according to a modified spectrophotometric method used by Ellman et al.. Protocol and assay conditions were the same as described by Rocha et al..
(§2) The Acetylthiocholine iodide and butyrylthiocholine chloride were used as substrates for investigation of acetylcholinesterase and butyrylcholinesterase assays, respectively. The 5,5′-Dithiobis[2-nitrobenzoic-acid] (DTNB) was used for the measurement of cholinesterase activity. The 0.2 mM DTNB in 62 mM sodium phosphate buffer (pH 8.0, 880 µL), test compound solution (40 µL) and acetylcholinesterase or butyrylcholinesterase solution (40 µL) were mixed and incubated for 15 minutes (25°C). The reaction was then initiated by the addition of acetylthiocholine or butyrylthiocholine (40 µL), respectively. […] All the reactions were performed in triplicate using a BMS spectrophotometer (USA). […] The final concentration of DMSO in the reaction mixture was maintained at 6%.

Sequences of proteins named here, by UniProt entry; tags and fusion partners are left off. Residues count along the entry.
UniProt P22303, 32-614: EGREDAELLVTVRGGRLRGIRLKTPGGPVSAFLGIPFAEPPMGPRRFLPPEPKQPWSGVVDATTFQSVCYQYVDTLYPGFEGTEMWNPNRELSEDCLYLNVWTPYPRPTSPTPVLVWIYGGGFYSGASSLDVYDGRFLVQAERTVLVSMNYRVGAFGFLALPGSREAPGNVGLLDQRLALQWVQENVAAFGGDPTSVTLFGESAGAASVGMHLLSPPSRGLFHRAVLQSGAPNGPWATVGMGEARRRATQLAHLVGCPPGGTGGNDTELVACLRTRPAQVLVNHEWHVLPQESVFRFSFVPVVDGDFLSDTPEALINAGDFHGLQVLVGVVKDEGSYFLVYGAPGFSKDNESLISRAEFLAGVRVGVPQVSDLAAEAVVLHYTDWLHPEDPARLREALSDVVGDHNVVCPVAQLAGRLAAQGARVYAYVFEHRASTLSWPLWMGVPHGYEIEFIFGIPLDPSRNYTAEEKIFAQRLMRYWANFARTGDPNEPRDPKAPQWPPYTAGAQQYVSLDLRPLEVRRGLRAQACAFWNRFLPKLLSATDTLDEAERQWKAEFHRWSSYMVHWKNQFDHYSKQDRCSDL
UniProt P81908, whole entry: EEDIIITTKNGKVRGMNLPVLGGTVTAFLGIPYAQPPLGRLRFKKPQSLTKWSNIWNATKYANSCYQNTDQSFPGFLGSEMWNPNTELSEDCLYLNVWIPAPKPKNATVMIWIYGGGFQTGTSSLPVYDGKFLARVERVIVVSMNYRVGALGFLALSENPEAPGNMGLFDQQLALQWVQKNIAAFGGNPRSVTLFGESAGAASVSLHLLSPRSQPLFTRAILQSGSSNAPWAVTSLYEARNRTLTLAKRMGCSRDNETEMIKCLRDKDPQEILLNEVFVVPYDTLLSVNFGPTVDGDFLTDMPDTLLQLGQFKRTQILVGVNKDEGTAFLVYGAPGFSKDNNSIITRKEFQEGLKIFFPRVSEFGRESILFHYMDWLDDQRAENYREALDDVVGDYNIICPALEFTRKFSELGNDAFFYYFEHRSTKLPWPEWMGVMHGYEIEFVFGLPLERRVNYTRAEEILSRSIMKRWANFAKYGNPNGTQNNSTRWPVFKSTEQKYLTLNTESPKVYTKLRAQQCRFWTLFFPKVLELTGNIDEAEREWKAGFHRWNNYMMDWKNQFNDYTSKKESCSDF

For assay [2], the target named is T2, butyrylcholinesterase (horse-serum E.C 3.1.1.8) (Equus caballus, UniProt P81908).
T2 construct: butyrylcholinesterase (horse-serum E.C 3.1.1.8); purchased Sigma, Pakistan; host or cells: horse serum
It counts as biochemical. Particulars: butyrylthiocholine chloride substrate, DTNB, pH 8.0, 25°C, 412 nm; value ± SEM; read-out: BChE ± SEM (IC50). As for the experimental part:
as §1, §2

A word on the IC50: it is the concentration at which inhibition is half-maximal.

Take Allanzanthane [reference compound]: the 50% inhibitory concentration (IC50) was found to be 2.94 ± 0.45 µM in assay [1] and 12.96 ± 0.053 µM in assay [2].

The values above are taken from PMC3986359, “New Cholinesterase Inhibitory Constituents from Lonicera quinquelocularis” (PLoS ONE, 2014).
